Assay results as given in ChEMBL document CHEMBL4334540, “Epimers Switch Galectin-9 Domain Selectivity: 3N-Aryl Galactosides Bind the C-Terminal and Gulosides Bind the N-Terminal” (ACS Med Chem Lett, 2020).
The source made the active and inactive calls.

Sequences of proteins named here, by UniProt entry; tags and fusion partners are left off.
UniProt P17931, whole entry: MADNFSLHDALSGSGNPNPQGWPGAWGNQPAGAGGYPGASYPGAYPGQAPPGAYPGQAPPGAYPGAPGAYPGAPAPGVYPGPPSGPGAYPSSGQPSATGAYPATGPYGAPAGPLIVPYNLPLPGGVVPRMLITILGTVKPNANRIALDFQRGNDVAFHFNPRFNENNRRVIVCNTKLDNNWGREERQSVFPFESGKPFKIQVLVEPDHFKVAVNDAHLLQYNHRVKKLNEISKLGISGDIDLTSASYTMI
UniProt P09382, whole entry: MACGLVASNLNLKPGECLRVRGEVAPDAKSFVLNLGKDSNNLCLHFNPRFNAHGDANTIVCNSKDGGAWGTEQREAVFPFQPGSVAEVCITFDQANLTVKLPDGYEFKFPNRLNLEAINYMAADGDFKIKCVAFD
UniProt P47929, whole entry: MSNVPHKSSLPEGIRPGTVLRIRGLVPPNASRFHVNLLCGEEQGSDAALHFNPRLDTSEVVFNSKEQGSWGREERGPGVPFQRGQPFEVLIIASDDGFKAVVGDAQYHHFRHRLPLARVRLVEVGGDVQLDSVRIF

Experiments:
Galectin-3 = Galectin-3 (Homo sapiens, UniProt P17931); assay: Binding affinity at recombinant human Galectin 3 expressed in Escherichia coli BL21 at 2 mM incubated for 5 mins by fluorescence anisotropy assay
[1] = molecular target: T1, Galectin-8 (Homo sapiens) (UniProt O00214); assay: Binding affinity at recombinant human N-terminal Galectin 8 expressed in Escherichia coli BL21 at 2 mM incubated for 5 mins by fluorescence anisotropy assay
T1 sequence (whole entry): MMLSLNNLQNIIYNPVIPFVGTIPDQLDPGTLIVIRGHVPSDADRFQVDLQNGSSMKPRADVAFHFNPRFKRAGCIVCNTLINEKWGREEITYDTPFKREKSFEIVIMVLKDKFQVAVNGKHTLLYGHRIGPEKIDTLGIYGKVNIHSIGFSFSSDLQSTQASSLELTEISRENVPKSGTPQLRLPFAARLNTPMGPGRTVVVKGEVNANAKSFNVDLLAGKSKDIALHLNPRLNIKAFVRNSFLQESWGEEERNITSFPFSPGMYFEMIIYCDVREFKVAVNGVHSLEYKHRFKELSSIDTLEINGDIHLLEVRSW

[2] = molecular target: T1, Galectin-8 (Homo sapiens); assay: Binding affinity at recombinant human C-terminal Galectin 8 expressed in Escherichia coli BL21 at 2 mM incubated for 5 mins by fluorescence anisotropy assay
Galectin-9 [3] = molecular target: T2, Galectin-9 (Homo sapiens, UniProt O00182); assay: Binding affinity at recombinant human C-terminal Galectin 9 expressed in Escherichia coli BL21 at 2 mM incubated for 5 mins by fluorescence anisotropy assay
Galectin-1 = Galectin-1 (Homo sapiens, UniProt P09382); assay: Binding affinity at recombinant human Galectin 1 expressed in Escherichia coli BL21 at 2 mM incubated for 5 mins by fluorescence anisotropy assay
Galectin-7 = Galectin-7 (Homo sapiens, UniProt P47929); assay: Binding affinity at recombinant human Galectin 7 expressed in Escherichia coli BL21 at 2 mM incubated for 5 mins by fluorescence anisotropy assay
Galectin-9 [4] = molecular target: T2, Galectin-9; assay: Binding affinity at recombinant human N-terminal Galectin 9 expressed in Escherichia coli BL21 at 2 mM incubated for 5 mins by fluorescence anisotropy assay

Measured: Activity

COc1ccc(N[C@H]2[C@@H](O)[C@@H](CO)O[C@@H](OC)[C@@H]2O)cc1
inactive: Galectin-3 | [1] | [2]

COc1ccc(N[C@@H]2[C@@H](O)[C@@H](CO)O[C@@H](OC)[C@@H]2O)cc1
not listed: Galectin-9 [4]
inactive: all other assays above

CO[C@@H]1O[C@H](CO)[C@H](O)[C@@H](Nc2cccc(C)c2)[C@H]1O
not listed: Galectin-9 [4]
inactive: all other assays above

CO[C@@H]1O[C@H](CO)[C@H](O)[C@H](Nc2ccc(F)c(F)c2)[C@H]1O
not listed: Galectin-9 [3] | Galectin-1
inactive: all other assays above

COc1cccc(N[C@H]2[C@@H](O)[C@@H](Sc3ccc(Cl)c(Cl)c3)O[C@H](CO)[C@@H]2O)c1
not listed: Galectin-9 [3] | Galectin-9 [4]
inactive: all other assays above

CO[C@@H]1O[C@H](CO)[C@H](O)[C@@H](Nc2ccccc2)[C@H]1O
not listed: Galectin-9 [4]
inactive: all other assays above

COc1cccc(N[C@@H]2[C@@H](O)[C@@H](CO)O[C@@H](OC)[C@@H]2O)c1
not listed: Galectin-9 [4]
inactive: all other assays above

CO[C@@H]1O[C@H](CO)[C@H](O)[C@H](Nc2cccc(C)c2)[C@H]1O
inactive: Galectin-3 | [1] | [2] | Galectin-7

COc1ccc(N[C@H]2[C@@H](O)[C@@H](Sc3ccc(Cl)c(Cl)c3)O[C@H](CO)[C@@H]2O)cc1
inactive: Galectin-3 | Galectin-9 [3] | Galectin-1

COc1ccc(N[C@@H]2[C@@H](O)[C@@H](Sc3ccc(Cl)c(Cl)c3)O[C@H](CO)[C@@H]2O)cc1
inactive: [1]

CO[C@@H]1O[C@H](CO)[C@H](O)[C@H](Nc2ccc(C)c(C)c2)[C@H]1O
inactive: Galectin-3 | [1] | [2] | Galectin-7

CO[C@@H]1O[C@H](CO)[C@H](O)[C@@H](Nc2cccc(Cl)c2)[C@H]1O
not listed: Galectin-9 [4]
inactive: all other assays above

CO[C@@H]1O[C@H](CO)[C@H](O)[C@H](Nc2cccc(Cl)c2)[C@H]1O
inactive: Galectin-3 | [1] | [2]

CO[C@@H]1O[C@H](CO)[C@H](O)[C@H](Nc2ccc(C)cc2)[C@H]1O
not listed: Galectin-9 [3] | Galectin-1
inactive: all other assays above

CO[C@@H]1O[C@H](CO)[C@H](O)[C@@H](Nc2ccc(C)cc2)[C@H]1O
not listed: Galectin-9 [4]
inactive: all other assays above

CO[C@@H]1O[C@H](CO)[C@H](O)[C@@H](Nc2ccc(F)c(F)c2)[C@H]1O
inactive: Galectin-3 | Galectin-9 [3] | [1] | [2]

COc1cccc(N[C@H]2[C@@H](O)[C@@H](CO)O[C@@H](OC)[C@@H]2O)c1
not listed: Galectin-9 [3] | Galectin-1
inactive: all other assays above

CO[C@@H]1O[C@H](CO)[C@H](O)[C@H](Nc2ccccc2)[C@H]1O
not listed: Galectin-9 [3] | Galectin-1
inactive: all other assays above

CO[C@@H]1O[C@H](CO)[C@H](O)[C@@H](Nc2ccc(C)c(C)c2)[C@H]1O
not listed: Galectin-9 [4]
inactive: all other assays above
